We go through 4 molecules from patent US10617690B2 (priority 2015, dated 2020).

SMILES strings stand for the structures.

For the assay, the system named is arthritis model induced by collagen. The note with it: oral, two consecutive weeks, clinical score.
Regarding `CN(c1ncnc2[nH]ccc12)N1CCC[C@@H](C(=O)NCC(F)(F)F)C1` (single isomer, unassigned) [WX05, (R or S)-1-[methyl(7H pyrrolo[2,3-d]pyrimidin-4-yl)amino]-N-(2,2,2-trifluoroethyl)piperidyl-3-formamide], the “therapeutic effect on rheumatoid arthritis of the mice” value (from here on “therapeutic effect”) is “obvious therapeutic effect on rheumatoid arthritis of the mice”.

Consider `CN(c1ncnc2[nH]ccc12)N1CCC[C@@H](C(=O)NCC#N)C1` (single isomer, unassigned) [WX08, (R or S)—N-(cyanomethyl-1-[methyl(7H-pyrrolo[2,3-d]pyrimidin-4-yl)amino]piperidyl)-3-formamide], for which the “therapeutic effect” value is “obvious therapeutic effect on rheumatoid arthritis of the mice”.

In the case of `CN(c1ncnc2[nH]ccc12)N1CCCC(C(=O)NCC(F)(F)F)C1` (stereo not shown) [WX04], the “therapeutic effect” value is listed as “obvious therapeutic effect on rheumatoid arthritis of the mice”.

For the molecule `CN(c1ncnc2[nH]ccc12)N1CCCC(C(=O)NCC#N)C1` (stereo not shown) [WX07, N-(cyanomethyl)-1-[methyl(7H-pyrrolo[2,3-d]pyrimidin-4-yl)amino]piperidyl-3-formamide], the “therapeutic effect” value is recorded as “obvious therapeutic effect on rheumatoid arthritis of the mice”.
